# From PubChem BioAssay AID485364 (National Center for Advancing Translational Sciences (NCATS), 2010)
# Only a part is listed here, and it is no random draw. The source made the active and inactive calls. Calls follow the shape of the dose curve; as a rule, active = well fitted inhibition curve with a large enough effect; inconclusive = small, poorly fitted or top-dose-only effect; inactive = no such curve, though single readings can be large or run the other way.
# Molecular target: Schistosoma mansoni thioredoxin glutathione reductase (TGR) (UniProt Q962Y6)
# Test: qHTS Assay for the Inhibitors of Schistosoma Mansoni Peroxiredoxins; also: nearly all actives have a fitted effect of over 60% in size
# Details: purified TGR, DTNB reduction, TNB absorbance 405 nm; series mostly up to 114 µM; activity change, negative = inhibition: at the top concentration
# Source text: Schistosomiasis is a major neglected tropical disease that currently affects over 200 million. It is caused by different species of flatworms, such as Schistosoma mansoni. Over the last century, drugs to treat the disease have evolved from potassium antimonyl tartrate, artemisinin, oxamniquine, to praziquantel, with praziquantel remaining the universally-used single drug of choice over the past three decades. However, transmission rates have changed little with praziquantel, and there is evidence for the development of drug resistant parasites. Because there is currently no suitable alternative therapy available, there is an urgent need to identify new targets and drugs for schistosomiasis treatment. Thioredoxin glutathione reductase (TGR), one uniquely positioned S. mansoni enzyme, has been identified as a major component of the worms' distinct and compressed antioxidant "firewall". TGR is a multifunctional enzyme that catalyzes the interconversion between reduced and oxidized forms of both glutathione (GSH) and thioredoxins, thus making it an attractive new antiparasitic target. Recently, a quantitative high-throughput screen of the NIH Molecular Libraries Small Molecule Repository (MLSMR, ~71K at the time of the screen in 2007) was performed using an assay that targeted both TGR and peroxiredoxin2 (Prx2, an H2O2-reducing enzymatic component of the S. mansoni redox "firewall") by following the decrease of NADPH fluorescence. […] Additional mechanistic link between exogenous NO donation and parasitic injury for the oxadiazole-2-oxide class of compounds was also expanded and better defined. Although the screen addressed both TGR and Prx2, the assay required post-screen target deconvolution for further characterization of the actives. In addition, the fluorescence assay was also subject to fluorescence interference from compound library members. We have developed a 1536-well-based kinetic HTS assay to address TGR alone. The assay followed the reduction of 5, 5'-dithiobis (2-nitrobenzoic acid) (DTNB) (Ellman's reagent) by NADPH and measured the increase in absorbance at 412 nm of the reaction product, TNB. […] This assay format can be used to screen the current MLSMR collection (with >300K compounds available) to find novel TGR inhibitors. Furoxan is a good choice to serve as a positive control in the primary HTS assay.
# Three microliters of reagents (100 uM NADPH and 20 nM TGR or 100 uM NADPH as no-enzyme control) were dispensed into 1,536-well black clear-bottomed plates. Compounds (23 nL) were transferred via Kalypsys pin tool equipped with 1536-pin array (10 nL slotted pins, V&P Scientific, San Diego, CA). The plates were then be incubated for 15 min at room temperature, and 1 uL aliquot of 500 uM NADPH were added, immediately followed by a 1 uL aliquot of 15 mM DTNB to start the reaction. The plate was transferred to a ViewLux high-throughput CCD imager (Perkin-Elmer, Wellesley, MA) where kinetic measurements of the TNB absorbance were acquired using a 405 excitation filter. Throughout the screen, reagent bottles and all liquid lines were made light-tight to minimize reagent degradation. All screening operations were performed on a fully integrated robotic system (Kalypsys, San Diego, CA) containing one RX-130 and two RX-90 anthropomorphic robotic arms (Staubli, Duncan, SC). Library plates were screened starting from the lowest and proceeding to the highest concentration, and a "double-dipping" step of the highest concentration was required to access higher concentrations of compounds. Vehicle-only plates, with DMSO being pin-transferred to the entire column 5-48 compound area, were inserted uniformly at the beginning and the end of each library in order to monitor for and record any shifts in the background, which can be affected by reagent dispensers or loss in enzyme activity overtime. […]
# % is scaled to controls: 0 for no effect and ±100 for the full control effect; potency is read from the fitted curve at half-maximal effect.
Compound,"activity change, negative = inhibition",Potency
COP1(=S)c2c(C)nn(CCC#N)c2N=C(c2ccc(F)cc2)N1C (configuration not stated),inactive: 7.18%,–
O=C(Nc1ccncc1[N+](=O)[O-])c1ccc([N+](=O)[O-])cc1[N+](=O)[O-],inactive: 8.43%,–
O=C(COc1ccccc1)OC1CN2CCC1CC2 (configuration not stated),inactive: 1.06%,–
CCOC(=O)c1ccc(NC(=O)C(C)(CCl)SC)cc1 (configuration not stated),inactive: -6.93%,–
O=C(OC1CN2CCC1CC2)c1cccc([N+](=O)[O-])c1 (configuration not stated),inactive: 0%,–
CCOC(=O)Nc1ccc([As](=O)(O)O)c(O)c1,inactive: -0.12%,–
Cc1cc(SC(NC(=O)c2ccccc2)C(Cl)(Cl)Cl)nc(C(C)C)n1 (configuration not stated),inactive: -21.8%,–
CCCCOc1ccc(C(=O)NCC2(N3CCCCC3)CCCCC2)cc1OC,inactive: 2.64%,–
CCOC(=O)Nc1cccc([As](=O)(O)O)c1,–,active: 28.2 µM
O=[N+]([O-])c1ccc(Nc2ccc(Oc3ccc([N+](=O)[O-])cc3[N+](=O)[O-])cc2)c([N+](=O)[O-])c1,inactive: -2.68%,–
COc1cc(C(=O)NCC2(N3CCOCC3)CCCCC2)ccc1OCC(C)C,inactive: -3.06%,–
O=[As](O)(c1ccc(O)cc1)c1ccccc1O,inactive: -1.02%,–
C[As](=O)(O)c1cccc(C(=O)O)c1,inactive: -30.7%,–
Cc1ccc2nc3c(c(C)c2c1)CC(C(Cl)Cl)S3 (configuration not stated),inactive: -9.21%,–
Cc1ccc(OP(=O)(Nc2ccc([N+](=O)[O-])cn2)Oc2ccc(C)cc2)cc1,inactive: 5.16%,–
CC(C)c1ccc(OP(=O)(Nc2ccccn2)Oc2ccccc2F)cc1 (configuration not stated),inactive: 1.17%,–
ClCCSc1nnc(-c2cccnc2)o1,inactive: -2.53%,–
CCN(CC)C(=S)SC(NC=O)C(Cl)(Cl)Cl (configuration not stated),inactive: 5.51%,–
CC(C)NC(=O)NP(=O)(Oc1ccccc1)Oc1ccccc1,inactive: -6.15%,–
Cc1cc(=O)[nH]c(N[N+](=O)[O-])n1,inactive: 7.46%,–
O=C(OC1CN2CCC1CC2)C12CC3CC(CC(C3)C1)C2 (configuration not stated),inactive: -1.12%,–

Compound,"activity change, negative = inhibition",Potency
Cc1c2c(nc3ccccc13)SC(C(Cl)Cl)C2 (configuration not stated),inactive: -10.6%,–
COc1cc(I)ccc1[As](=O)(O)O,–,active: 1.41 µM
COc1ccc2nc(NP(=O)(c3ccccc3)c3ccccc3)sc2c1,inactive: -8.33%,–
COc1ccc(N/C(=N/P(=O)(N2CCOCC2)N2CCOCC2)N2CCOCC2)cc1,inactive: -1.33%,–
CS(=O)(=O)c1ccc(Cl)c(NC(=O)COC(=O)C(O)(c2ccccc2)c2ccccc2)c1,inactive: -19.1%,–
COc1cc(C(=O)NCC2(N3CCOCC3)CCCCC2)cc(Cl)c1OC(C)C,inactive: -3.73%,–
O=[As](O)(O)c1cccnc1,–,active: 1.41 µM
O=C(OC1CN2CCC1CC2)c1ccc(Cl)cc1 (configuration not stated),inactive: -8.23%,–
Cc1cccc(OCC(=O)OC2CN3CCC2CC3)c1 (configuration not stated),inactive: 0.983%,–
CCCOP(=S)(Nc1nc(N)cc(=O)[nH]1)OCCC,inactive: 11%,–
Nc1cccc2c([As](=O)(O)O)cccc12,–,active: 15.8 µM
CCOP(=O)(Nc1cccc2ccccc12)OCC,inactive: 4.26%,–
COc1cc(C2NCCC3(OCCO3)C2(C)C)cc(OC)c1OC (configuration not stated),inactive: -4.26%,–
CS(=O)(=O)c1cc([N+](=O)[O-])c2no[n+]([O-])c2c1,–,active: 5.01 µM
O=P(Nc1nccs1)(c1ccccc1)c1nc2ccccc2s1 (configuration not stated),–,active: 0.282 µM
O=P(Nc1nccs1)(Oc1ccccc1)Oc1ccccc1,inactive: -1.16%,–
CCOP1(=S)c2c(C)nn(CCC#N)c2N=C(c2ccccc2F)N1C (configuration not stated),inactive: 4.88%,–
O=C(O)COc1ccc([As](=O)(O)O)cc1[N+](=O)[O-],–,active: 17.8 µM
O=[N+]([O-])c1ccc2c(c1)nnn2O,inactive: -6.13%,–
CN(C(=O)Cc1ccccc1)[C@@H]1CC[C@]2(CCCO2)C[C@H]1N1CCCC1,inactive: 0%,–
CCOP1(=S)c2c(C)nn(CCC#N)c2N=C(c2ccc(F)cc2)N1C (configuration not stated),inactive: 7.82% [at 11.4 µM],–

Compound,"activity change, negative = inhibition",Potency
N#CCCN(C(=O)COC(=O)C(O)(c1ccccc1)c1ccccc1)c1ccc(F)cc1,inactive: 0.84%,–
CC1CCC(C(C)C)C(OP(=O)(Nc2ccccn2)c2ccccc2)C1 (configuration not stated),inactive: 7.66%,–
Cc1ccc(C(=O)OC2CN3CCC2CC3)cc1 (configuration not stated),inactive: -1.21%,–
Cc1nn(-c2ccccc2)c2c1P(=O)(N1CCOCC1)N(C)C(c1ccccc1)=N2 (configuration not stated),inactive: 2.15%,–
O=C(/C=C/c1ccccc1)OC1CN2CCC1CC2 (configuration not stated),inactive: 31.8%,–
CN(C)C1(CNC(=O)c2ccc(S(C)(=O)=O)cc2)CCCCC1,inactive: 8.68%,–
O=P1(Nc2ncccn2)COc2ccccc2OC1,inactive: -4.9%,–
O=P1(Nc2ccc(Br)cn2)COc2ccccc2OC1,inactive: 3.61%,–
NS(=O)(=O)c1cccc(NC(=O)COC(=O)C(O)(c2ccccc2)c2ccccc2)c1,inactive: -2.71%,–
O=[As](O)(c1cccs1)c1cccs1,–,active: 5.62 µM
Cc1ccc(OCC(=O)OC2CN3CCC2CC3)cc1 (configuration not stated),inactive: -0.277%,–
Nc1cccc([As](=O)(O)c2ccccc2)c1,inactive: -5.44%,–
CCOP(=O)(Nc1ccc(C)cn1)OCC,inactive: 8.21%,–
CCOP(=O)(NC(=NC(C)c1ccccc1)NC(C)c1ccccc1)OCC (configuration not stated),inactive: 3.94%,–
O=P1(Nc2ccccn2)COc2ccccc2OC1,inactive: 3.96%,–
CCC1=CC2Cc3nc4ccc(Cl)cc4c(N)c3C(C1)C2 (configuration not stated),inactive: -15.6%,–
CC(C)(C)C(=O)NC(Sc1ncccn1)C(Cl)(Cl)Cl (configuration not stated),–,active: 1.41 µM
Clc1n[nH]nc1-c1nn[nH][15n]1,inactive: 12.1%,–
COc1ccccc1CNC(=O)COC(=O)C(O)(c1ccccc1)c1ccccc1,inactive: -1.14%,–
O=[As](O)(c1ccccc1Br)c1ccccc1Br,inactive: -28.8%,–
